Literature values, collected in article PMC10576435.

Target: TRPM2 1355-1368 (Homo sapiens) (UniProt O94759)

- Kd: 0.11 µM
Substance: Calmodulin (from UniProt P0DP23)
